Reference: patent publication US5667825A (Kellogg Company, priority 1996, dated 1997)

What was measured:
[1] = adverse storage conditions; cited from earlier work
[2] = system: Sprague Dawley rats; test: Rat hemoglobin regeneration method, relative iron bioavailability (modified AOAC); format: in vivo; conditions: ratio of slope of each diet to slope of ferrous sulfate
Protocol: […]. The relative iron availability of various iron compounds in a ready-to-eat breakfast cereal was tested using a widely accepted method, commonly referred to as the rat hemoglobin regeneration method, (modified AOAC method for assessment of relative iron bioavailability), see Williams, S. ed. Official methods of analysis of the Association of Official Analytical Chemists, 14th ed. Arlington, Va. AOAC, 1984; Fritz, J. C. et al., Collaborative Study of rat hemoglobin repletion test for bioavailability of iron, AOAC 1974, 57: 513-517. The testing for relative bioavailability of the various iron compounds was carried out in a series of separate experiments. In each of these experiments, ferrous sulfate was used as the standard or control compound.
Sprague Dawley rats, individually housed in temperature and light controlled units, were fed an iron deficient diet obtained from Harland Tekland Laboratories for 24 days. […] After the 14 day test period, hemoglobin concentrations were determined for all animals.
The bioavailability of each iron source tested relative to ferrous sulfate, was calculated by comparing gain in hemoglobin with the iron concentration in the diet by the slope ratio procedure (Finney, D. J., Statistical methods in biological assay. 2nd ed. 1964; Amine et L., Biological assessment of available iron in food products, J. Agric. Food Chem. 1974, 22: 470-476.). […]

## O=C([O-])CN(CCN(CC(=O)[O-])CC(=O)[O-])CC(=O)[O-].[Fe+3].[Na+] [Ferric EDTA, sodium ferric ethylenediaminetetraacetic acid complex]
[1]
  Stability on storage and cooking: more stable under adverse storage conditions and is unaffected by cooking
[2]
  Slope Ratio (bioavailability relative to ferrous sulfate): 0.94
